Data as given in patent US7183251B1, “hCG therapy for the treatment of breast cancer” (Fox Chase Cancer Center, priority 1998, dated 2007).

Experiments:
[1] = r-hCG in primary breast cancer: serum hormone levels by RIA; assay type: in vivo, human; conditions: for serum levels of FSH, estradiol, inhibin, progesterone (b94 also LH): days 0, 5, 9, 13 of treatment
Text: Specimen Collection and Post-Surgical Treatment. After informed consent, the patient underwent core biopsies of the primary tumor under local anesthesia with a pistol fitted with a 12 to 14 gauge tru-cut type biopsy needles (Bard, Covington, USA). This procedure represents the standard of care, therefore no departure from routine diagnostic procedures was required. The core needle biopsy was examined by frozen section technique. If the frozen section was positive for malignancy, then three additional needle biopsies were obtained from the tumor for evaluating the surrogate markers listed below. On the same day 0 (pretreatment) a serum sample was taken for determination of basal levels of inhibin, estrogen, progesterone, FSH, LH and the beta subunit of hCG. The serum sample, as was the case for all subsequent sera, was derived from the blood sample and frozen immediately at −70° C. until the day of shipment to the research laboratory. The other serum samples were obtained at days 5, 9 and 13. At day 15 of hCG treatment the patient underwent surgery, which consisted of mastectomy when the tumoral mass (including ‘in situ’ components) was considered to be larger than 3 cm; otherwise the breast was conserved and a lumpectomy was performed. Breast conservation was only practiced when the surgical margins were free of disease. Lymph node dissection of the axilla was routineously performed. All resected tissues was sent to the laboratory of pathology for microscopical examination.
The systemic effects of this hormonal treatment was evaluated by determining serum levels of the pituitary hormones FSH and LH, and the ovarian hormones estrogen, progesterone, and inhibin as markers of hCG activity. Ten ml of blood were drawn on days 0, 5, 9 and 13 of treatment, from 26 patients. The serum was separated immediately upon drawing, frozen at −80° C. and the specimens were identified with the patient trial number, date, and sequence in the number in the treatment. The sera were shipped from Belgium to the clinical laboratory in dry ice by express mail. All specimens were identified upon arrival at the laboratory by experiment number and an accession number which was sequentially assigned by date of arrival.
Frozen serum samples were shipped to InterScience Institute (ISI), Inglewood, Calif., for radio immunoassay (RIA) quantitative determination of levels of the following hormones: hCG beta subunit, estradiol, progesterone, FSH; LH; and inhibin. Quantitative determination of beta-hCG was confirmed by SmithKline—Beechman Clinical Laboratories in Philadelphia, Pa.

[2] = tested on: DMBA-induced rat mammary carcinomas; experiment: Effect on advanced (palpable) tumor development after DMBA (Regimens 7-9); assay type: in vivo
Description: Evaluation of the therapeutic efficiency of r-hCG on mammary cancer. The tumoristatic and tumoricidal efficacy of r-hCG and u-hCG on early and advanced mammary cancer was tested in intact virgin rats that had received a single dose of DMBA when they were 45 days old (FIG. 4, Regimens 4–9). The effect on early tumor development was tested under Regimens 4, 5, and 6. It was evaluated by initiating r-hCG treatment 20 days after DMBA administration, when early lesions, such as intraductal proliferations (IDPs) and carcinomas in situ (CIS) are already present, but there are no palpable tumors as yet. The effect on advanced tumor development was evaluated by starting the hormonal treatment 60 days after DMBA administration, or when palpable tumors had reached at least 1 cm in maximal diameter (Regimens 7, 8, and 9). In both groups the hormone was administered for 40 days and final tumorigenic response was evaluated 20 weeks post-DMBA administration. The effect of the hormonal treatment on the rate of tumor growth, with special emphasis on tumor regression, absence of skin ulceration, and final tumor size and necrosis were evaluated at the time of assessment of the final tumorigenic response.
For Regimens 4–9, 300 animals were inoculated with a single ig dose of 8 mg DMBA/100 g bw when they were 45 days old. Tumorigenic response was evaluated by palpation of the right and left mammary cervical, thoracic, abdominal and inguinal areas and from ventral to dorsolateral extensions of the glands. All tumors were sequentially numbered in the order they had appeared, their location was recorded, and the rate of tumor growth was determined by measurement of tumor size with a Vernier caliper. All changes in the health status of the animals, rapid tumor growth or skin ulceration were recorded. Those animals in which the tumors were excessively large or became ulcerated were euthanized, irrespectively of the stage of the hormonal treatment, in compliance with IACUC regulations. Those animals that were euthanized before initiation or before the completion of the hormonal treatments were deleted from the statistical analysis of the final tumorigenic response.
Regimens 7–9 tested the effects of r-hCG and u-hCG on late (palpable) tumor development: Sixty days after DMBA inoculation, when the rats were 105 days old, animals allocated to Regimen 7 started receiving a daily ip injection of 100 IU/day r-hCG for 40 days. Under Regimens 8 and 9 the same number of animals received for 40 days 100 IU/day of u-hCG or 0.5 ml placebo, respectively. Tumorigenic response was evaluated by biweekly palpation. All tumors were sequentially numbered, their location was recorded, and the rate of tumor growth was determined by measurement of tumor size with a Vernier caliper. Final tumorigenic response was evaluated 20 weeks after administration of DMBA.
Evaluation of Final Tumorigenic Response. […] The tumors were rapidly dissected, measured in three dimensions, and serially sliced. Adjacent slices were:
The following criteria were utilized for evaluating the final tumorigenic response:
1. Rate of tumor growth, based on sequential measurement of the two largest diameters of tumors in live animals utilizing a Vernier Caliper and expressing the results in mm.
2. Final tumor size, based on measurement of the length, width and height of dissected tumors with a Vernier Caliper. Results were expressed in mm. A progressively smaller tumor size in successive measurements was indicative of tumor regression. Palpable tumors that had disappeared at the time of dissection were considered to be 100% regressed. The mammary tissue in which the tumor had been originally identified was fixed in 10% NBF for histopathological analysis.
5. Statistical Analysis. The significance of the differences in tumorigenic response among the groups was determined by Chi Square analysis and Student's T test.

[3] = 100 IU/day ip 40 days starting 60 days after DMBA, Regimens 7, 8

Question: What does the source list for “r-hCG: recombinant human chorionic gonadotropin, glycoprotein hormone composed of two non-covalently linked (α and β) subunits”?
Answer: serum levels of FSH, estradiol, inhibin, progesterone (b94 also LH) [1]: Neither the r-hCG nor the placebo treatments modified; serum levels of FSH, estradiol, inhibin, progesterone (b94 also LH) ([1]; listed as R-hCG): did not modify; serum level of LH ([1]; r-hCG over placebo, any time point sampled): no statistically significant increase; serum level of b-hCG ([1]; vs placebo at 5, 9 and 13 days of treatment (p<0.0001, P<0.004, p<0.007)): significant difference; also recorded: elevated; No. An. With Tumors ([2]; 100 IU/day ip 40 days starting 60 days after DMBA, 20 weeks post-DMBA, Regimens 7, 8): 33; No. Tumors/Animal (total animals at risk) [2, 3]: 3.9; Percentage (animals with tumors) [2, 3]: 89.1; Total No. Tumors [2, 3]: 147; tumors per animal with tumors ([2]; Regimen 7): 4.4; reduction of tumor burden ([2]; treatment initiated 60 days after DMBA, vs placebo): 40%

Entries after “also recorded” stand apart in the source; their conditions may differ.
